Consider 1 substance from patent US5925621A, “Method for preventing sexually transmitted diseases” (priority 1997, dated 1999).

The data set concerns mice. Particulars: mouse, in vivo.

Turning to “hydroquinone sulfonic acid formaldehyde co-polymer [PS53]”, the toxic symptoms entry is listed as “did not show toxic symptoms”.
